Results from patent US7119100B2 (priority 2001, dated 2006).

Tests used:
mice [1] = experiment: mice 55° C. hot plate test (sc/po); conditions: for hot plate test ED50 / hot plate test Max. efficacy: 55° C.
Wistar rats [2] = experiment: self-administration testing in rat; conditions: I1 0.05, 0.08, 0.1 mg·kg^−1, continuous 35–40 days session
rhesus monkey [3] = experiment: substitution test in rhesus monkey self-administering morphine
Wister rats = conditions: for loss weight: rats, naloxone
[4] = analgesic models, po versus sc comparison
[5] = tested on: opiate receptors of rat brain; experiment: 3H-naloxone binding, Na+ index determination; conditions: for IC50: 5 nmol·L^−1 3H-naloxone, rat brain membrane
Swiss mice = experiment: conditioned place preference testing in mice; conditions: morphine 10, buprenorphine 0.3, I1 3 and 10 mg·kg^−1
Wistar rats [6] = experiment: rat 55° C. hot water bath test
rats = experiment: rat formaldehyde test
mice [7] = experiment: acetic acid writhing test
rhesus monkey [8] = experiment: rhesus monkey tail flick test; conditions: n = 5
mice [9] = experiment: tail-flick test, s.c. and p.o. administration
heroin dependent rat = experiment: substitution test in heroin dependent rat
rhesus monkey [10] = experiment: self-administration testing in rhesus monkey; conditions: 0.025–0.05 mg·kg^−1/inject

Question: With `COC12CCC3(CC1C(C)(O)CC1CCCCC1)C1Cc4ccc(O)c5c4C3(CCN1CC1CC1)C2O5` (centres unmarked) as the compound, how does the “hot plate test ED50” value (mice [1]) read?
Answer: 0.1591 mg/kg

Question: And the “hot plate test Max. efficacy” value (mice [1]; hydrochloride)?
Answer: 94%

Question: Which results are given for `COC12CCC3(CC1C(C)(O)CCc1cccs1)C1Cc4ccc(O)c5c4C3(CCN1CC1CCC1)C2O5` (centres unmarked)?
Answer: hot plate test ED50 (mice [1]): 0.159 mg/kg; hot plate test Max. efficacy (mice [1]): 71.2%

Question: For `COC12CCC3(CC1C(C)(O)CCc1cccs1)C1Cc4ccc(O)c5c4C3(CCN1CC1CC1)C2O5` (centres unmarked), which daily injections (Wistar rats [2]) is on record?
Answer: < 10

Question: And the induction of self-administration (Wistar rats [2])?
Answer: couldn't induce self-administration

Question: And the “self-administration in replace of morphine or buprenorphine” value (rhesus monkey [3]; I1 0.05 mg·kg^−1/inject)?
Answer: could not maintain

Question: What about the “self-administration in the place of morphine” value (rhesus monkey [3]; I1 0.025, buprenorphine 0.05 mg·kg^−1/inject, morphine 0.25 mg/kg/inject) of the same compound?
Answer: could continue self-administration

Question: What about the “number of total abstinence signs compared with saline group” value (Wister rats; morphine 30×Tid×7d, 30×Tid×14d, naloxone-precipitated) of the same compound?
Answer: no significant differences

Question: What about the loss weight (Wister rats; Tid × 7d: morphine 30, buprenorphine 5, I1 3 mg·kg^−1) of the same compound?
Answer: 0.4 ± 0.6 g

Question: What about the loss weight (Wister rats; Tid × 14d: morphine 30, buprenorphine 5, I1 3 mg·kg^−1) of the same compound?
Answer: 2.0 ± 1.9 g

Question: And the “range of effective dose” value ([4]; in two analgesic models)?
Answer: 1 to 3 mg/kg

Question: What about the bioavailability ([4]; inferred from ED50 po/ED50 sc ratios) of the same compound?
Answer: higher than that of buprenorphine

Question: What about the “affinity to opiate receptors relative to morphine” value ([5]; 3H-naloxone binding) of the same compound?
Answer: 100 times

Question: What about the “Na^+ index” value ([5]; ratio of IC50 in presence of NaCl to IC50 in absence) of the same compound?
Answer: 0.42

Question: What about the IC50 ([5]; read-out: IC50 Free of Na^+, no NaCl) of the same compound?
Answer: 190 pM

Question: And the IC50 ([5]; read-out: IC50 Presence of Na^+, 100 nmol·L^−1 NaCl)?
Answer: 80 pM

Question: And the “induction of Conditioned Place Preference” value (Swiss mice)?
Answer: induced significant Conditioned Place Preference

Question: What about the “hot water bath test ED50” value (Wistar rats [6]) of the same compound?
Answer: 3.48 mg/kg

Question: What about the “hot water bath test Max. efficacy” value (Wistar rats [6]) of the same compound?
Answer: 79.3%

Question: And the “formaldehyde test ED50” value (rats)?
Answer: 0.15 mg/kg

Question: And the “formaldehyde test Max. efficacy” value (rats)?
Answer: 100.0%

Question: And the “acetic acid writhing test ED50” value (mice [7])?
Answer: 0.116 mg/kg

Question: And the “ED50 P.O” value (mice [7]; Acetic Writhing, p.o.)?
Answer: 0.64 mg/kg

Question: What about the “ED50 S.C” value (mice [7]; Acetic Writhing, s.c.) of the same compound?
Answer: 0.08 mg/kg

Question: And the “acetic acid writhing test Max. efficacy” value (mice [7]; hydrochloride)?
Answer: 100%

Question: What about the “Latency tail flick (X ± SD)” value (rhesus monkey [8]; 1 μg · kg^−1 Im) of the same compound?
Answer: 4.8 ± 2.1 s

Question: What about the “Latency tail flick (X ± SD)” value (rhesus monkey [8]; 2 μg · kg^−1 Im) of the same compound?
Answer: 6.5 ± 3.6 s

Question: And the “Latency tail flick (X ± SD)” value (rhesus monkey [8]; 4 μg · kg^−1 Im)?
Answer: 7.9 ± 2.5 s

Question: What about the “Latency tail flick (X ± SD)” value (rhesus monkey [8]; 6 μg · kg^−1 Im) of the same compound?
Answer: 9.2 ± 3.1 s

Question: What about the “latency (X ± SD)” value (rhesus monkey [8]; 6 μg · kg^−1 po) of the same compound?
Answer: 5.1 ± 1.8 s

Question: What about the “latency (X ± SD)” value (rhesus monkey [8]; 12 μg · kg^−1 po) of the same compound?
Answer: 6.0 ± 1.9 s

Question: What about the “latency (X ± SD)” value (rhesus monkey [8]; 24 μg · kg^−1 po) of the same compound?
Answer: 6.7 ± 2.3 s

Question: What about the “latency (X ± SD)” value (rhesus monkey [8]; 48 μg · kg^−1 po) of the same compound?
Answer: 5.7 ± 0.5 s

Question: What about the “ED50 P.O” value (mice [9]; p.o.) of the same compound?
Answer: 2.61 mg/kg

Question: And the “ED50 S.C” value (mice [9]; s.c.)?
Answer: 1.75 mg/kg

Question: What about the “self-administration after substitution for heroin” value (heroin dependent rat) of the same compound?
Answer: Self-administration could continue

Question: What about the “hot plate test ED50” value (mice [1]) of the same compound?
Answer: 0.86 mg/kg

Question: And the “ED50 P.O” value (mice [1]; Hot plate, p.o.)?
Answer: 3.10 mg/kg

Question: And the “ED50 S.C” value (mice [1]; Hot plate, s.c.)?
Answer: 0.57 mg/kg

Question: What about the development of self-administration (rhesus monkey [10]) of the same compound?
Answer: couldn't induce the development of self-administration

Like-named read-outs stand apart in the source and are kept apart here.
